Structures are written as SMILES.

Chains of the proteins cited; added tags and fusions are not shown.
UniProt Q8C6L5, whole entry: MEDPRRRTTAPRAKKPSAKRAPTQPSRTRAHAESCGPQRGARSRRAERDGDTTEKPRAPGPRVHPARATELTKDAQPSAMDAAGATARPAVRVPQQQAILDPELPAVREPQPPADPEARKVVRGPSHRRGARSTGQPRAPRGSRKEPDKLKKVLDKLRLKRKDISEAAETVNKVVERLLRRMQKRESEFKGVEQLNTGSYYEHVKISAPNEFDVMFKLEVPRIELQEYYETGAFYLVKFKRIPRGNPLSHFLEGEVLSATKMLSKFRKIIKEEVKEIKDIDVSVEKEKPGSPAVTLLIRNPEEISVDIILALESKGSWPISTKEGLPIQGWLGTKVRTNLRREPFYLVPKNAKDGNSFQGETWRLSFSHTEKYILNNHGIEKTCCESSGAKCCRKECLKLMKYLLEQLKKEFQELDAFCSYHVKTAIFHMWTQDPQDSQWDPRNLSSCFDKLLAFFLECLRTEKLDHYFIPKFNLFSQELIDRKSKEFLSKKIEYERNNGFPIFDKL

The values that follow come from PMC7363834, “A STING-based biosensor affords broad cyclic dinucleotide detection within single living eukaryotic cells” (Nature Communications, 2020).

Data set [1] concerns the target recombinant SUMO-mcGAS (cGAS) (Mus musculus, UniProt Q8C6L5). In words: cGAS enzyme activity assay (2ʼ3ʼ-cGAMP production) read out with BioSTING FRET. Particulars: fixed cGAS and ISD; 250 µM ATP, 250 µM GTP, 50 ng ISD; linear rates fit.
The conditions of data set [2]: reason the compound failed in development; ref Pfizer; cited from earlier work.
For the next data set, the system named is cGAS. Particulars: read-out: reported IC50; cited from earlier work.

In the case of `O=C(NC1CCCCC1C(=O)O)c1cnn2c(O)cc(-c3ccccc3)nc12` (stereo not drawn), the IC50 in data set [1] was 12.3 µM; with cGAS, 5 µM. The “access to the cytosol” value in data set [2] is on record as “inability to access the cytosol”.
